Data set [1] concerns L929 cells. The data set can be described thus: L929 cytotoxicity assay of GST-TNF variants. Conditions: 0.03-4 ng/ml and 240 ng/ml. In kind it is cell-based, murine. The method, then:
FIG. 6. G122R substitution abrogates TNF trimer formation, binding to TNFR and bioactivity. […] Data shown as mean±SEM of a representative experiment performed in triplicate. (FIG. 6C) L929 cytotoxicity assay was performed in the presence of WT GST-TNF or GST-TNF^G122R at serial dilutions (0.03-4 ng/ml). Data shown as mean±SEM of three experiments performed in triplicate.
The biological activity of the GST-TNF^G122R variant was tested using in vitro cytotoxicity assays.

Data set [2] has as its system TNF. The data set can be described thus: Chemical cross-linking of soluble TNF proteins (trimer formation). In kind it is biochemical, human. Conditions: DSS cross-linking, soluble protein. The method, then:
The G278 residue of RANKL is highly conserved among various members of the TNF superfamily (FIG. 2E). Thus, we investigated whether a similar substitution in soluble human TNF, which corresponds to a replacement of glycine with arginine at position 122 (G122R), modifies TNF trimerization and function.
(§1) The chemical cross-linking reagent disuccinimidyl suberate (DSS, Sigma) was used to examine the trimeric property of RANKL and TNF.^[33] 50 mM of DSS was prepared as a stock solution in dimethyl sulfoxide (DMSO). RANKL or TNF proteins at a final concentration of 0.1 mM in PBS buffer (pH 7.5) were mixed with 1 mM DSS (the molar ratio of DSS is 10:1). The cross-linking reactions were carried out for 1 hour at room temperature and terminated with 50 mM Tris (pH 7.5) for 30 minutes. Proteins from reaction mixtures were separated on 12% SDS-PAGE, followed by staining with Coomassie blue R-250 or proceeded in Western blot.

For data set [3], the system named is RANKL. The experiment in a line: Chemical cross-linking of soluble RANKL proteins (trimer formation). In kind it is biochemical, mouse. Conditions: DSS, soluble protein.
Excerpt: The inability of the soluble RANKL^G278R protein to form trimers was then verified using chemical cross-linking (FIG. 4B). GST was removed from the RANKL protein with proteolytic cleavage of GST-RANKL bound on glutathione-beads. Even though, soluble WT RANKL was released efficiently from the beads, the majority of the soluble RANKL^G278R protein remained bound on the beads after digestion (data not shown). This phenomenon indicates increased hydrophobicity of the RANKL^G278R protein due to the formation of hydrophobic protein-protein interactions.
as §1

Consider “GST-TNF^G122R: extracellular domain of human TNF with G122R substitution, fused to GST”, for which the “cytotoxicity in L929 cells” value in data set [1] is reported as “inefficient to induce cytotoxicity”.

Turning to “TNF^G122R: soluble human TNF with glycine to arginine substitution at position 122”, the TNF trimer formation result in data set [2] is listed as “abrogated trimer formation”.

B1: RANKL^G278R: murine RANKL with glycine to arginine substitution at residue 278; soluble or full-length Myc-tagged (protein, UniProt O35235 139-316, looked up, variant G278R)
Tumor necrosis factor ligand …: FSGAPAMMEGSWLDVAQRGKPEAQPFAHLTINAASIPSGSHKVTLSSWYHDRGWAKISNMTLSNGKLRVNQDGFYYLYANICFRHHETSGSVPTDYLQLMVYVVKTSIKIPSSHNLMKGGSTKNWSGNSEFHFYSINVGRFFKLRAGEEISIQVSNPSLLDPDQDATYFGAFKVQDID
modifications: Myc tag
notes: murine RANKL with glycine to arginine substitution at residue 278; soluble or full-length Myc-tagged
Turning to B1, in data set [3], the “forms detected after cross-linking” value was “only the monomer form and a high molecular weight “aggregate” form”.

The values are drawn from patent publication US20140165223A1, “TNF SUPERFAMILY TRIMERIZATION INHIBITORS” (B.S.R.C. "Alexander Fleming", priority 2011, published 2014).
